Laboratory results reported in patent US9920010B2, “CXCR7 receptor modulators” (IDORSIA PHARMACEUTICALS LTD, priority 2013, dated 2018).

Sequences of proteins named here, by UniProt entry; tags and fusion partners are left off.
UniProt P25106, whole entry: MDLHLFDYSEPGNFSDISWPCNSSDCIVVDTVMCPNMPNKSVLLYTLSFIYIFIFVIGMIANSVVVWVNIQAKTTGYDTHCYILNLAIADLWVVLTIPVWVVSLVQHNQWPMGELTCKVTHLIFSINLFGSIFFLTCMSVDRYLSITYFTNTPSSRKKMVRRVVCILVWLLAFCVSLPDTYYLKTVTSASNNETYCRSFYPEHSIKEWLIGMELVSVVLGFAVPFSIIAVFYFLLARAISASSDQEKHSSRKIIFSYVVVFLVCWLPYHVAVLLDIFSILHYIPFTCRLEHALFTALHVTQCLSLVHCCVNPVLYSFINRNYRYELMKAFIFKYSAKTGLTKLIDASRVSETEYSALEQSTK
UniProt P32121, whole entry partner: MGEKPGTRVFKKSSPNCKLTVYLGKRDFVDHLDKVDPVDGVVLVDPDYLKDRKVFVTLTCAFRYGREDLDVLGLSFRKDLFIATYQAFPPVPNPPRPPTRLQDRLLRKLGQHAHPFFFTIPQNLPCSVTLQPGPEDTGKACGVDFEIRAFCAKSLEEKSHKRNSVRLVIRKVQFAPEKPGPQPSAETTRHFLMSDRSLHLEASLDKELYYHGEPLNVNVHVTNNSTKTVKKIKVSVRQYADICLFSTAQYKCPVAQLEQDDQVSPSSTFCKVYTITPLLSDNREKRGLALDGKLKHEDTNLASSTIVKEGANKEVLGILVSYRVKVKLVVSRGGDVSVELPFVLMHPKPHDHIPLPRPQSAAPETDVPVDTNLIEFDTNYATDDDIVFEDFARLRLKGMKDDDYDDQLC

Molecular target: CXCR7 (Homo sapiens, UniProt P25106)
Assay: PathHunter CHO-K1 CXCR7 b-arrestin recruitment assay (CXCR7 agonistic activity)
Details: read-out: CXCR7 EC50, PathHunter CHO-K1 CXCR7 b-arrestin cell line
Protocol: The CXCl12 receptor and CXCR7 agonistic activities of the compounds of formula (I) are determined in accordance with the following experimental method.
The assay is using the PathHunter™ CHO-K1 CXCR7 b-arrestin cell line from DiscoverX. The system is based on the Enzyme Fragment Complementation Technology. Two complementing fragments of the b-galactosidase enzyme are expressed within stably transfected cells. The larger portion of b-gal, termed EA for Enzyme Acceptor, is fused to the C-terminus of b-arrestin 2. The smaller fragment, termed ProLink™ tag, is fused to CXCR7 at the C-terminus. Upon activation, b-arrestin is recruited which forces the interaction of ProLink and EA, allowing complementation of the two fragments of b-gal and the formation of a functional enzyme which is capable of hydrolysing the substrate and generating a chemiluminescent signal.
CHO-K1 CXCR7 b-arrestin cells are detached from culture dishes with a cell dissociation buffer (Invitrogen, #13151-014) and collected in growing medium (F12 HAMS 90% (v/v)/FCS 10% (v/v), Penicillin/streptomycin 1% (v/v)). 5000 cells per well (in 20 μl) are seeded in a 384 well plate (white-walled, clear bottom; BD Falcon #353274). […] Luminescent signal is read in a microplate reader (FLUOstar Optima, bmg). The calculated EC50 values may fluctuate depending on the daily cellular assay performance. […]

pEC50 | Structure (SMILES)
7.89 | CNCCN(Cc1ccccc1C(F)(F)F)C(=O)CNc1cccc2c1CCN(C(=O)COC)C2
6.55 | CN1CCN(C(=O)/C=C/c2cccc3c2CCN(CC2CC2)C3)C(c2ccccc2)C1 (centres unmarked)

pEC50: −log10 of the molar value.
